Measurements taken from US20050208394A1, “Dye-containing curable composition, color filter and method of producing the color filter” (FUJI PHOTO FILM CO., LTD., priority 2004, published 2005).

Experiments:
[1] = Heat resistance: change in chromaticity ΔEab* of the coated glass substrate after hot plate heating; assay type: physicochemical; conditions: 200° C. for one hour
[2] = Light fastness: change in chromaticity ΔEab* of the coated glass substrate after xenon lamp irradiation; assay type: physicochemical; conditions: xenon lamp 50,000 Lux for 10 hours
Protocol: The glass substrate coated with the dye resist solution was irradiated with 50,000 Lux light from a xenon lamp for 10 hours (corresponding to 500,000 Lux·h) and then, a change in chromaticity, namely ΔEab* value, before and after the irradiation was measured. The obtained ΔEab* value was adopted as an index showing the degree of […] and evaluated based on the following criteria. The smaller the ΔEab* value is, the higher the […] is.
• A: ΔEab* was 3 or less. • B: ΔEab* exceeded 3 and was less than 10. • C: ΔEab* was 10 or more. —Pattern Shape—
A cyan pattern image was obtained by carrying out coating, prebaking, irradiation, developing, rinsing and drying in the same manner as in Example 1 and then heated at 180° C. for 5 minutes. Also, the heat resistance, light fastness and pattern shape were evaluated in the same manner as in Example 1 and also the solubility of the dye (exemplified compound (3)) was evaluated visually according to the same criteria as in Example 1 from the degree of solubility when the dye was dissolved in the above “1) Preparation of a dye resist solution (positive type dye-containing curable composition)”.

[3] = negative type dye resist film on glass
[4] = positive type dye resist film on glass

Substance	Heat resistance [1, 3]	Heat resistance [1, 4]	Light fastness [2, 3]	Light fastness [2, 4]
Tetra-β-(1-benzimidazolyl)zinc phthalocyanine [Exemplified compound (2)]	B (ΔEab* exceeded 5 and was less than 10.)	A (ΔEab* was 5 or less.)	B (ΔEab* exceeded 3 and was less than 10.)	A (ΔEab* was 3 or less.)
tetra-α-(1-benzimidazolyl)zinc phthalocyanine [Exemplified compound (1)]	–	–	–	A (ΔEab* was 3 or less.)
